Some tests of the compounds listed are not included; inactive here does not mean inactive elsewhere. Active and inactive are the calls of the source.
How the values were obtained:
Assay type in all cases: functional, cell-based
[1] = tested on: U-937; test: Inhibition of foam cell formation in LDL exposed human U937 cells assessed as accumulation of red O-stained lipid droplets at 10 uM for 14 hrs by nile red fluorescence assay
In short: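 U937 grown in RPMI with 10% FCS were used at subconfluence. They were incubated for 14 h in fresh RPMI containing native LDL (100 µg/mL), 1 µM CuSO₄ and agent (10 µM). Cells were fixed in 10% paraformaldehyde, stained with 0.5 µg/mL Nile Red, scraped and read fluorometrically (ex 460/em 550 nm). Parallel slides were stained with oil red O and hematoxylin and examined microscopically. Data are the mean of three experiments.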

[2] = tested on: HMEC-1; test: Inhibition of 4-hydroxynonenal-induced carbonyl stress in HMEC1 cells assessed as prevention of increase in carbonylated protein level at 10 uM relative to control; details: Homo sapiens
In short: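 HMEC-1 were incubated overnight with 50 µM 4-HNE in FCS-free RPMI-1640 with the compound, then washed, scraped and pelleted. Protein was derivatized for 1 h at room temperature with 0.1% DNPH in 2 M HCl, precipitated with TCA, and washed with ethanol/ethyl acetate. It was dissolved in 8 M guanidine buffer (pH 7.4) and read at 365 nm. Results are % of unstimulated control, mean of four experiments.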

[3] = tested on: HMEC-1; test: Cytoprotective activity against ultraviolet irradiation oxidized LDL and 4-hydroxynonenal-induced cytotoxicity in HMEC1 cells assessed as cell survival at 10 uM after 24 hrs relative to control; details: Homo sapiens
In short: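 HMEC-1 were exposed to 4-HNE added directly to the medium, or to UV-oxidized LDL. For the oxidized LDL, LDL at 2 mg apoB/mL with 2 µmol/L CuSO₄ was irradiated with UV-C (254 nm) for 2 h and then added at 200 µg apoB/mL. Compounds were present during exposure. Viability was read by MTT after 24 h, as % of cells in LDL-free medium. Each value is the mean of four determinations.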

Measured: Activity

CCOP(=O)(F)/C=C/c1cc(OC)c(O)c(-c2cc(/C=N/NC(=O)c3ccncc3)cc(OC)c2O)c1 (stereo not drawn)
inactive: all assays above
